Results on one substance are retold here after US20080105961A1, “Ligands of the Molecule Fit (Agt-121) and their Pharmaceutical Use” (priority 2004, published 2008).

This assay addresses T1, FIT-NP (FIT N-terminal plus proline-rich region) (Homo sapiens, UniProt Q9BQI5).
T1 construct: expressed in transfected cells
T1 sequence (Q9BQI5 with tags, fused parts or gaps I33M/P40L/N43H/V56A/I186T/P191L/T195L/E211G/Q212H/I230V/T240A/N255T/I269V/G270A/P271T/S276A/V280A/L285P/N289S/A308T/K311T/T318A/S335T/T339A/P340S/N342I/A348T/L352P/P357S/T358A/DEL367-367/L371P/I397L/D402E/F403C/A409E/P432S/P434T/T437A/R454S/S455C/T456S): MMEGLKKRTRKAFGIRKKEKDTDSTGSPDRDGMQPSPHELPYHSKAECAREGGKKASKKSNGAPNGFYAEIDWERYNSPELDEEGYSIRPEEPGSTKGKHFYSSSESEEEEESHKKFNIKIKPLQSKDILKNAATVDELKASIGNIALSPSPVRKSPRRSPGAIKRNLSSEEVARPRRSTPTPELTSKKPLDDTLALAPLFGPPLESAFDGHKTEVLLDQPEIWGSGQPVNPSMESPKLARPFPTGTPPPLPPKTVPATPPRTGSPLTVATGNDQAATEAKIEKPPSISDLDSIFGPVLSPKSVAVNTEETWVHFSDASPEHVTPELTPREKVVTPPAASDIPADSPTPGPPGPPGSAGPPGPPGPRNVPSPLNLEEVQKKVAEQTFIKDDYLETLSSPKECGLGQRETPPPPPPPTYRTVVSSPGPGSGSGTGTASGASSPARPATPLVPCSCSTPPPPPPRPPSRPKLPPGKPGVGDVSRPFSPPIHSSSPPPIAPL
Description: Yeast two-hybrid screen of human brain cDNA library, bait FIT-NP. It is filed as binding. From the text:
To investigate the mechanism by which FIT regulates energy balance, neural proteins that interact with FIT were identified. In order to perform these experiments, two truncated fragments of FIT were constructed to be used as baits in a yeast two-hybrid screen of a human brain cDNA library: one bait consisting of the N-terminal region plus the central proline-rich region, and the other bait consisting of the central proline-rich region alone. The inventors utilised a yeast two-hybrid system which incorporates modifications by Chevray and Nathans (1992), and Vidal et al. (1996) to screen a human brain cDNA library. FIT fragments were PCR amplified, purified and then cloned into an appropriate vector. Sense oligonucleotides for FIT-NP (5′-[…]-3′: SEQ ID NO:72), and FIT-PR (5′-[…]-3′: SEQ ID NO:73), with Sal1 restriction enzyme sites underlined, were used in conjunction with a common antisense oligonucleotide (5′-[…]-3′: SEQ ID NO:74), with the Not1 restriction enzyme site underlined.
Human brain cDNA inserts were prepared and cloned into the expression vector according to manufacturer's instructions.

For “β-arrestin 2: FIT interacting protein isolated from a human brain cDNA library”, the Number of clones (bait FIT-NP, human brain cDNA library, clones listed highest to lowest interacting strength) turned out to be 2. Also, where the note is “in yeast”, the “strength of interaction with FIT” value is “slightly lesser strength”.
